According to US20240197588A1, “ANTIMICROBIAL COMPOSITION” (Conopco, Inc., d/b/a UNILEVER, priority 2021, published 2024):

Assays:
[1] = Solubility of oil (detackifying agent) in 75/25 EtOH/Water; settings: neat detackifying agent
[2] = Water solubility in oil (solvency of detackifying agent for water); settings: neat detackifying agent

Solubility in 75/25 EtOH/Water [1]: <10%
Water solubility in detackifying agent [2]: No
SMILES: CCCCC(CC)COC(=O)CCCCCCCCC(=O)OCC(CC)CCCC (centres unmarked) [Diethyl hexyl sebacate]
